Measured values reported in patent US11639929B2, “Universal histidine-tag binding compounds and methods of use thereof as fluorescent probes and sensors” (YEDA RESEARCH AND DEVELOPMENT CO. LTD., priority 2014, dated 2023).

Biological target: T1, His-CaM(Ca^+2) (Mus musculus, UniProt P0DP26)
T1 construct: purchased Israel Structural Proteomics Center (Weizmann Institute of Science)
Assay: Surface plasmon resonance on immobilized His-CaM with Ca2+
Type: binding
Conditions: read-out: Dissociation constant; SPR, Table 2, CaCl2 0.3 mM
Procedure: SPR experiments were performed to assess the dissociation constant between His-CaM and the compound 1 in the presence/absence of Ca^2+ ions and other ligands. His-CaM was diluted in 180 μL PBS buffer (4.1 mM, pH=7.3) and 20 μL sodium acetate (1 M, pH=3) to reach a final concentration of 20 μg/mL and then immobilized on a Biacore sensor chip CM5 through EDC/NHS chemistry. Flow cells were activated for 5 min by injecting 50 μL mixture of 50 mM NHS:200 mM EDC. Then 50 μL of His-CaM (20 μg/mL) was injected at a rate of 10 μL/min followed by injection of ethanolamine (1 M) to block the remaining surface-activated groups. Various analytes (Table 1) were injected in different concentrations, ranging from 0.1-2 μM for (20 μL/min, 80 μL injection with a delay of 180 s wash) (Table 1). Between consecutive analyte injections, the surface was regenerated with 2 mM NaOH (20 μL at 10 μL/min) followed by PBS buffer (60 μL at 10 μL/min). Non-derivatized dextran matrix flow cells served as reference cells. For determination of dissociation constants in the presence of M13 or Mastoparan (entries 3 and 4), first 80 μL M13 or Mastoparan (3 μM, 20 μL/min) were injected and after dissociation began 80 μL compound 1 (concentration range of 0.2-2 μM, 20 μL/min) was injected. CaCl2 (0.3 mM) was pre-incubated with the analyte before injections. […]

Mastoparan showed a Kd of 1.2 nM.
